Patent publication US20130079309A1 (published 2013)

Amino acid sequences for entries named in this document (tags omitted). A change or cut given only in a name is not applied to a line headed by its entry.
UniProt P21453, whole entry: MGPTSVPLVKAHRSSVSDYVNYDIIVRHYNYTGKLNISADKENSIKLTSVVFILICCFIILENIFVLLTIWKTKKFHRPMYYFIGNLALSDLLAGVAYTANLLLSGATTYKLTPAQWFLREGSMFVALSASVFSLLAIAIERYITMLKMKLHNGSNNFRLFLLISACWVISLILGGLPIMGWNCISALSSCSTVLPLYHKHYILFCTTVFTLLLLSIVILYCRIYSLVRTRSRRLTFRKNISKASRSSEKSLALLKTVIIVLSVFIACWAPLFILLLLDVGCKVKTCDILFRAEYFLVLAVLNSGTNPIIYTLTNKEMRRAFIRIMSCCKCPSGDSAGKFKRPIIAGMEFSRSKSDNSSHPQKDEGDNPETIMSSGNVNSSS

Key:
S1P receptor 1 (S1PR1) [1] = target: T1, S1P receptor 1 (S1PR1) (Homo sapiens, UniProt P21453); assay: S1PR1 protein expression in HPAEC by Western blot; type: cell-based
S1P receptor 1 (S1PR1) [2] = target: T1, S1P receptor 1 (S1PR1); assay: Ubiquitination of S1PR1 in HPAEC (immunoprecipitation, ubiquitin Ab); conditions: 1 μM

## CCCCCCCCc1ccc(CCC(N)(CO)COP(=O)(O)O)cc1 (stereo not shown) [p-FTY]
S1P receptor 1 (S1PR1) [1]; 1 μM (SEW2871 10 μM), 4 h
  S1PR1 expression level compared to control: 17.7%
S1P receptor 1 (S1PR1) [1]; 1 μM, 4 h (FIG. 18)
  S1PR1 expression, agonist without MG132: 51.8%
S1P receptor 1 (S1PR1) [1]; MG132 10 μM 2 h, then 1 μM agonist 4 h
  S1PR1 expression, agonist after MG132 pretreatment: 80.3%
S1P receptor 1 (S1PR1) [2]
  ubiquitination of S1PR1 at 1 h: significant ubiquitination
